Experiment [1] deals with T1, Indoleamine 2,3-dioxygenase 1 (Homo sapiens, UniProt P14902). The experiment in a line: Inhibition of human recombinant IDO expressed in HEK293 cells assessed as blockade of tryptophan degradation by HPLC. The class given is cell-based.
In experiment [2] the target is T1, Indoleamine 2,3-dioxygenase 1.
Experiment [3] addresses Indoleamine 2,3-dioxygenase 1 (Mus musculus, UniProt P28776). In words: Inhibition of mouse recombinant IDO expressed in mouse P815B cells assessed as blockade of tryptophan degradation by HPLC. Type of experiment: cell-based.

Chains of the proteins cited; added tags and fusions are not shown. Lines headed by an entry give the natural chain unless they say otherwise; changes in a name come on top.
UniProt P14902, whole entry: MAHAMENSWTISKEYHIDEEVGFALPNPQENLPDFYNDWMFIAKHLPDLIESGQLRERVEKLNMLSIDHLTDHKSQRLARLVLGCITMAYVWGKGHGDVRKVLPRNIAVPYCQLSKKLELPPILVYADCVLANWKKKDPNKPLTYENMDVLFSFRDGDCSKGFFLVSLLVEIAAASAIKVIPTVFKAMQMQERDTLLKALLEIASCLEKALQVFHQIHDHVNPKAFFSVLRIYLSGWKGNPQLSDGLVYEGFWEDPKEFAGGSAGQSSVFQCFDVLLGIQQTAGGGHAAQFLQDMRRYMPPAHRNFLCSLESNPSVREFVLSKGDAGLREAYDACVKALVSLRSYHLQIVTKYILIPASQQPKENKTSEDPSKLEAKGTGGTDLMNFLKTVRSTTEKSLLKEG
UniProt P28776: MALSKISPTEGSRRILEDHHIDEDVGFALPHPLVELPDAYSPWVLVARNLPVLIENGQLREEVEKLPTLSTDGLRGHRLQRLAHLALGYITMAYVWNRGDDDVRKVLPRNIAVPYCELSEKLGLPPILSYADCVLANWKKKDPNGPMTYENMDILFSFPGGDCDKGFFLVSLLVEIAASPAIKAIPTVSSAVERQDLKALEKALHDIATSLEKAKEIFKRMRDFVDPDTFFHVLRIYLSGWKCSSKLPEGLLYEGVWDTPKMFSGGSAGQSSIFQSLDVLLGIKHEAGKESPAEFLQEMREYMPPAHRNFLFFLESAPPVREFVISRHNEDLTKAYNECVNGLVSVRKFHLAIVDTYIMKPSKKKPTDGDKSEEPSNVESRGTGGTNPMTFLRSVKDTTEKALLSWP

As a reminder, the IC50 is the point on the concentration scale where inhibition reaches its midpoint.

For `Oc1ccc(O)c2ccccc12`, the figures for the IC50 in experiment [1] and in experiment [2] were 10 µM and 1.5 µM, respectively.
As to `CCNc1ccc(O)c2ccccc12`, the IC50 in experiment [3] came out at 50 µM.
